# In patent US10729671B2, “Zinc complexes of hydrazones and (thio)semicarbazones and their use for the treatment of cancer” (RUTGERS, THE STATE UNIVERSITY OF NEW JERSEY, priority 2015, dated 2020):
# System: TOV112D cells
# Experiment: Intracellular [Zn2+]free imaging with FluoZin-3-AM in TOV112D cells
# Type: cell-based
# Details: TOV112D (ovarian cancer, p53-R175H), FZ3-AM, complete media, confocal microscopy
row,Compound,increase of intracellular [Zn2+]free
1,O=C(O)CN(CC(=O)O)CC(=O)O [NTA],did not
2,C/C(=N\NC(=O)N1CCC1)c1ccccn1 [Compound A6],did not
3,C/C(=N\NC(=S)N1CCC1)c1ccccn1 [ZMC1],increased
